# From published antibiotic growth screens (doi:10.1038/s41589-023-01349-8)
# Some of the results follow.
# System: A. baumannii ATCC 17978
# Assay: relative growth (fraction of control); higher = less inhibition
# Settings: 50 µM
row,Compound,relative growth
1,NC(N)=Nc1nc(CSCC/C(N)=N\S(N)(=O)=O)cs1,0.954
2,O=C(O)CCC(=O)O.O=C(O[C@H]1CN2CCC1CC2)N1CCc2ccccc2[C@@H]1c1ccccc1,0.825
3,CCN(CC)CCNC(=O)c1cc(S(C)(=O)=O)ccc1OC.Cl,1.01
4,CC(C)Cn1c(N)cc(=O)n(C)c1=O,0.887
5,CC(C)c1ccc2c(ccc[n+]2C)c1,0.951
6,O=C(O[C@@H]1Cc2c(O)cc(O)cc2O[C@@H]1c1cc(O)c(O)c2c(=O)c(O)cc([C@H]3Oc4cc(O)cc(O)c4C[C@H]3O)c-2c1)c1cc(O)c(O)c(O)c1,0.737
7,COCCn1c(=NN)[nH]c2ccsc2c1=O,0.993
8,C#CCCCCCCCCCCCC(O)CC(O)CO (stereo unspecified),0.839
9,O=C(N/N=C/c1ccc(CO)o1)c1ccccn1,1.03
10,Nc1nc(=S)c2ncn([C@@H]3O[C@H](CO)[C@@H](O)[C@H]3O)c2[nH]1,0.944
11,COc1cc(OC)c(CN(CC#CCOC(=O)NCCCCCC(=O)NO)S(=O)(=O)c2ccccc2[N+](=O)[O-])c(OC)c1,1.07
12,CO[C@@H](CN(C)C(=O)c1ccc2c(c1)OCO2)[C@@H](C)CN([C@H](C)CO)S(=O)(=O)c1ccc(Cl)cc1,0.906
13,CC(C)Cc1ccc([C@@H](C)C(=O)Nc2ccc(Cl)cc2)cc1,1.01
14,Cc1cc(SCc2ccc(F)cc2)c(C)cc1Cl,0.94
15,CC(C)C(=O)NNC(=O)c1ccccc1O,1.09
16,COc1ccc(OCC(=O)NCC(=O)O)cc1,1.03
17,COCC(=O)N[C@H]1C=C[C@@H](CC(=O)N2CCCCC2)O[C@H]1CO,1.06
18,O=C(C[C@H]1C=C[C@H](NS(=O)(=O)c2ccc(F)cc2)[C@H](CO)O1)NCc1ccc(Cl)c(Cl)c1,0.962
19,O=c1cc(-c2ccc(O)cc2)oc2cc(O)cc(O)c12,0.947
20,NCCC(=O)NCCc1cnc[nH]1,0.813
21,C[C@@H]1CN([C@@H](C)CO)S(=O)(=O)c2ccc(C#Cc3ccc(F)cc3)cc2O[C@@H]1CN(C)S(=O)(=O)c1cn(C)cn1,1
22,CC(=O)NCCCC[C@@H]1NC(=O)[C@@H]2C[C@H](C(=O)NCCCCN(C)C)[C@H](c3ccc(O)cc3)N2C1=O,1.01
23,CS(=O)(=O)c1nnnn1-c1ccc2c(c1)OCO2,1.08
24,C[C@@H]1CN([C@H](C)CO)S(=O)(=O)c2ccc(C#CC3CC3)cc2O[C@@H]1CN(C)C(=O)Cc1ccncc1,1.02
25,O=C(C[C@H]1C[C@H]2c3cc(NC(=O)c4ccc5c(c4)OCO5)ccc3O[C@H]2[C@H](CO)O1)NCc1ccccn1,1.1
26,C[C@H](CO)N1C[C@H](C)[C@@H](CN(C)C(=O)Cc2ccncc2)Oc2ncc(C#CC3(O)CCCC3)cc2C1=O,1.08
